## Yeast mating assay B: variants of the scFv Ab-14

Reference: Li et al. 2023, doi:10.1038/s41467-023-39022-2. File: FLAb, binding data.

Target: peptide PDVDLGDISGINAS, taken from heptad repeat 2 (HR2) of SARS-CoV-2 spike.

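This is the validation round: designs drawn from the data on random variants, tested in the same kind of assay. Their group label is 14L_En_Gibbs (En: ensemble of fine-tuned language models; Gibbs: Gibbs sampling). The scFvs were displayed on barcoded MATa yeast, the peptide on MATalpha yeast. Binding brings cells together so that they mate, and sequencing counts the barcode pairs among the diploids. Scores were corrected for input abundance and mapped to Kd with protein pairs of known affinity run in the same pool. The assay was run in six technical replicates.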

Each scFv is VH, three GGGGS repeats, VL, as in the parent Ab-14, and differs from it in the CDRs of the light chain only.
VH: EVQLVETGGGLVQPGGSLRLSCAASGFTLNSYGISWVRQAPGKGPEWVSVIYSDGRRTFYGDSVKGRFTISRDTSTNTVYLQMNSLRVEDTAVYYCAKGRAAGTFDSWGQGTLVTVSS
VL: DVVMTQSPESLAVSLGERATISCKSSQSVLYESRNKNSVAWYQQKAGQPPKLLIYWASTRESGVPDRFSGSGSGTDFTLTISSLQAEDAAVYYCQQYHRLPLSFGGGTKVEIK

Variants are written as CDR1, CDR2 and CDR3 of the light chain (limits as in the source). Parent: KSSQSVLYESRNKNSVA, WASTRES, QQYHRLPLS.
The read-out is the apparent dissociation constant on a log10 scale (nM): the lower, the stronger.
Averages over replicates are reported, and they cover detected replicates only.
"ND" marks a missing value. The strain was present, yet no cells mated with the target were sequenced in that replicate, which points to weak or no binding.
The range of this assay differs from that of the first round, and the authors advise against merging the two.
The parent sequence was in this pool as ten entries: three were never detected, three once, and four in most replicates, with averages from 0.34 to 2.37.
In the paper, a design with two or fewer of six values counts as a poor binder.
As a blank, each scFv also met three strains without target: over all light chain designs, 4% of these pairings were detected, typically at 2.64 and seldom below 1.59. Also given: how often the same scFv was detected with the empty control strains, with their mean in brackets.

| # | CDR-L1 | CDR-L2 | CDR-L3 | replicates, log10 nM | mean, log10 nM | control signals |
|---|---|---|---|---|---|---|
| 1 | HINKFMSQIGGARNNVA | GDTTLAQ | QHYHRLPLS | ND / ND / ND / ND / ND / ND | ND | 1/18 (3.74) |
| 2 | HMSESEHGDNVGVGNMA | NAQETVA | QQYHHLPLS | 0.64 / 0.65 / 0.50 / 0.57 / 0.46 / 0.93 | 0.63 | 0/18 |
| 3 | KIDGQRSYQGGRERAIA | DANIRFR | QQYARLPLV | 1.39 / 1.26 / 1.11 / 1.42 / 1.16 / 1.65 | 1.33 | 2/18 (2.71) |
| 4 | HLKTMPGQGPQEYSSIA | HAELRTP | QQYYRLPLM | 0.75 / 0.14 / -0.02 / -0.08 / 0.08 / 0.35 | 0.20 | 0/18 |
| 5 | QLQLQPLFGAQAQSSIA | DVSEADM | QQYARLPLH | ND / 1.58 / 1.72 / 1.76 / 2.55 / ND | 1.91 | 1/18 (2.44) |
| 6 | NMQLQVRSGNNNKYNIA | AEMLREY | QQYNRLPLS | ND / 1.30 / 0.90 / 1.55 / 1.05 / 0.46 | 1.05 | 0/18 |
| 7 | KLSLVLGVSKQVEKNIA | NTRLKVA | QQYDRLPLT | 0.85 / 0.77 / 0.65 / 1.05 / 0.70 / 0.93 | 0.83 | 1/18 (2.78) |
| 8 | MFNMEVGIEDMKWNSVA | SADVRAF | QQYGRLPFS | 1.12 / 0.72 / 0.73 / 1.19 / 0.80 / 0.98 | 0.93 | 0/18 |
| 9 | HIERSTKGDAYFQYSIA | QGDIREK | QQYAQLPLT | 0.91 / 1.01 / 1.40 / 1.46 / 2.13 / 2.11 | 1.51 | 1/18 (2.14) |
| 10 | MFSMMHAMQYNEESSIA | DAEALNS | QQYFELPLS | ND / ND / ND / ND / ND / ND | ND | 1/18 (1.25) |
| 11 | MVNTNLFHQAQRDNSIA | EADMVAA | QDYDRLPLI | 2.16 / 2.73 / 2.07 / 2.97 / 2.30 / 2.27 | 2.42 | 0/18 |
| 12 | SLFESEREELSVEQNIA | DGTEHMD | QQYFRLPLL | 0.68 / 0.34 / 0.49 / 0.79 / 0.69 / 0.56 | 0.59 | 0/18 |
| 13 | KMTTNLGHQASRKNSIA | EADMVAC | QQYMRLPLI | 1.42 / 1.40 / 1.13 / 1.02 / 1.54 / 1.12 | 1.27 | 2/18 (2.85) |
| 14 | RLAMGHDNYMHEGNHVA | EVSCKAT | QQYAHLPLV | ND / 2.01 / ND / ND / ND / ND | 2.01 | 2/18 (2.83) |
| 15 | KLYQVTTHHGAALNNIA | EGARRND | QQYARLPLV | 0.67 / 0.43 / 0.42 / -0.04 / 0.46 / 0.59 | 0.42 | 0/18 |
| 16 | MLDEYQSYGAANLNAVA | DANCTMF | QAYYRLPLS | 1.09 / 0.98 / 0.94 / 0.88 / 0.89 / 0.91 | 0.95 | 3/18 (3.10) |
| 17 | RVTIISDPYMENRNNIA | QTSLRAH | QQYQMLPLT | -0.13 / 0.05 / -0.43 / -0.36 / -0.27 / -0.04 | -0.20 | 0/18 |
| 18 | HYENISEPMGRYDQNIA | NVSTREH | QQYFMLPLS | 0.59 / 0.61 / 0.77 / 0.34 / 0.48 / 0.61 | 0.57 | 1/18 (3.99) |
| 19 | IIEQGEYEQEQHQNAIA | DGETRMR | QQYYKLPLV | 0.59 / 0.75 / 0.50 / 0.57 / 0.38 / 0.55 | 0.56 | 0/18 |
| 20 | MISMEEAPASQNASSIA | QGGLRAE | QQYNRLPLC | 0.82 / 1.02 / 0.58 / 0.81 / 0.72 / 1.08 | 0.84 | 1/18 (3.39) |
| 21 | HFLSLDLHQTGTLNSVA | EAEERQE | QQYARLPLM | 0.32 / 0.35 / 0.20 / 0.15 / 0.08 / 0.85 | 0.33 | 0/18 |
| 22 | KIRVHNLMFSQNESSIA | GQSNRSE | QQYYHLPLT | ND / ND / 0.80 / ND / 3.15 / 1.48 | 1.81 | 0/18 |
| 23 | HMMSGSVEQWNIQNAVA | EMSEVYD | QQYVSLPLS | 1.08 / 1.00 / 1.97 / 1.75 / 0.36 / 1.56 | 1.29 | 0/18 |
| 24 | HFSQETMEFMSQNKAIA | EVTTTML | QQYARLPFI | 1.84 / 1.35 / 1.41 / 1.49 / 1.53 / 1.56 | 1.53 | 0/18 |
| 25 | KLVGVSDSDMNPSHNIA | DVSMVDN | QQYHRLPLD | 1.36 / 2.76 / 2.26 / 0.72 / ND / 2.02 | 1.82 | 2/18 (2.54) |
| 26 | HITSNMFGTIGVTSNVA | ETNTLMV | QQYSKLPLM | 0.46 / 0.29 / 0.06 / 0.16 / 0.24 / 0.34 | 0.26 | 0/18 |
| 27 | KLDSQYQHGTNQKKAMA | DSSVSTQ | QQYSRLPLS | -0.03 / 0.09 / -0.09 / 0.07 / -0.10 / 0.20 | 0.03 | 2/18 (1.81) |
| 28 | RIQQQMAGFERHAANIA | STAVRLW | QQYARLPFI | 1.72 / 0.74 / 1.16 / 0.74 / 2.26 / 1.17 | 1.30 | 0/18 |
| 29 | FLGYQQDGNGLQRQAVA | QVNMKEY | QQYGRLPLM | 1.84 / 2.75 / ND / ND / 1.64 / ND | 2.07 | 0/18 |
| 30 | HTQHLGFGDYAWANSIA | ERSQVCE | QQYFRLPLI | ND / 1.45 / 2.22 / 1.66 / 1.06 / 2.13 | 1.70 | 3/18 (1.71) |
| 31 | KLFGGIPEQERIDYSIA | YGTLSEV | QQYDRLPLS | ND / ND / ND / ND / ND / ND | ND | 0/18 |
| 32 | KIQTKTYFENIGEYSVA | DANTSVD | QYYFRLPLS | 0.22 / 0.42 / 0.64 / 0.38 / 1.02 / 0.30 | 0.50 | 0/18 |
| 33 | RLNVFQNVSTQGNNSIA | GAEQKVH | QQYMRLPLY | 0.62 / 0.24 / 0.48 / 0.15 / 0.59 / 0.52 | 0.43 | 0/18 |
| 34 | KLQNFSQEPNKMWNNIA | DMTMKHT | QQYNRLPLV | 0.73 / 0.43 / -0.43 / 1.29 / 0.34 / 0.28 | 0.44 | 0/18 |
| 35 | HVELGVGGVQKYGSSVA | HASQRQS | QQYYQLPLT | 0.87 / 0.55 / 0.34 / 0.99 / 0.24 / 0.51 | 0.58 | 2/18 (2.11) |
| 36 | KLRNDFMENKQNQSNIA | AGHESIK | QQYSMLPLS | 1.51 / 1.03 / 1.08 / 1.26 / 0.95 / 1.35 | 1.20 | 1/18 (2.16) |
| 37 | QFDLFENYQGMQNASIA | GTTNRHT | QQYQKLPLS | 0.76 / 0.85 / 0.79 / 0.89 / 0.82 / 1.15 | 0.88 | 1/18 (2.85) |
| 38 | RLTQQMAGFNRHANNVA | STAVRQW | QQYARLPFI | 0.88 / 0.00 / 1.15 / 0.67 / 0.16 / 1.37 | 0.71 | 0/18 |
| 39 | KITDKFLTEGNGRQNIA | HGMVALD | QQYQQLPLA | -0.08 / 0.00 / 0.18 / -0.01 / 0.00 / 0.36 | 0.08 | 2/18 (3.24) |
| 40 | HFQHLFFGDFAWANSIA | ERSQVCE | QQYFRLPLG | 2.18 / 1.18 / ND / 2.47 / ND / 2.40 | 2.06 | 0/18 |
| 41 | SLTIYTDENGLKHQSIA | GAGLRML | QQYHRLPLT | 1.10 / 0.40 / 1.13 / 0.87 / 0.95 / 1.14 | 0.93 | 0/18 |
| 42 | KIELSNSWHLRGTSAVA | QASTRAA | QQYQRLPLL | 0.55 / 0.21 / 0.19 / 0.27 / 0.32 / 0.46 | 0.33 | 3/18 (3.30) |
| 43 | NMRGGEGEIAQHGYSVA | GVDLRAA | QQYARLPLH | 1.68 / 1.41 / 1.58 / 1.41 / 1.59 / 1.10 | 1.46 | 0/18 |
| 44 | MMHNCQEGYYQQNNNVA | EMNARMM | QQYGRLPLM | 1.55 / 1.41 / 1.45 / 1.73 / 1.49 / 1.15 | 1.46 | 2/18 (2.12) |
| 45 | RIQDHMAVGTMSHSSIA | EEATWMD | QQYSRLPLA | ND / 1.12 / ND / 1.96 / -0.06 / ND | 1.00 | 0/18 |
| 46 | HSSPSYYYDSRNKNHVA | DATTRES | QQYHRLPLH | 2.34 / 1.23 / ND / 2.20 / 1.15 / 1.47 | 1.68 | 1/18 (2.35) |

For reference, 6 entries of the list once more:

| CDR-L1 | CDR-L2 | CDR-L3 | replicates, log10 nM | mean, log10 nM | control signals |
|---|---|---|---|---|---|
| KIRVHNLMFSQNESSIA | GQSNRSE | QQYYHLPLT | ND / ND / 0.80 / ND / 3.15 / 1.48 | 1.81 | 0/18 |
| RIQQQMAGFERHAANIA | STAVRLW | QQYARLPFI | 1.72 / 0.74 / 1.16 / 0.74 / 2.26 / 1.17 | 1.30 | 0/18 |
| HITSNMFGTIGVTSNVA | ETNTLMV | QQYSKLPLM | 0.46 / 0.29 / 0.06 / 0.16 / 0.24 / 0.34 | 0.26 | 0/18 |
| RVTIISDPYMENRNNIA | QTSLRAH | QQYQMLPLT | -0.13 / 0.05 / -0.43 / -0.36 / -0.27 / -0.04 | -0.20 | 0/18 |
| MISMEEAPASQNASSIA | QGGLRAE | QQYNRLPLC | 0.82 / 1.02 / 0.58 / 0.81 / 0.72 / 1.08 | 0.84 | 1/18 (3.39) |
| KMTTNLGHQASRKNSIA | EADMVAC | QQYMRLPLI | 1.42 / 1.40 / 1.13 / 1.02 / 1.54 / 1.12 | 1.27 | 2/18 (2.85) |